From ChEMBL document CHEMBL1671828 (ACS Med Chem Lett, 2011)

Amino acid sequences for entries named in this document (tags omitted).
UniProt Q63380, whole entry: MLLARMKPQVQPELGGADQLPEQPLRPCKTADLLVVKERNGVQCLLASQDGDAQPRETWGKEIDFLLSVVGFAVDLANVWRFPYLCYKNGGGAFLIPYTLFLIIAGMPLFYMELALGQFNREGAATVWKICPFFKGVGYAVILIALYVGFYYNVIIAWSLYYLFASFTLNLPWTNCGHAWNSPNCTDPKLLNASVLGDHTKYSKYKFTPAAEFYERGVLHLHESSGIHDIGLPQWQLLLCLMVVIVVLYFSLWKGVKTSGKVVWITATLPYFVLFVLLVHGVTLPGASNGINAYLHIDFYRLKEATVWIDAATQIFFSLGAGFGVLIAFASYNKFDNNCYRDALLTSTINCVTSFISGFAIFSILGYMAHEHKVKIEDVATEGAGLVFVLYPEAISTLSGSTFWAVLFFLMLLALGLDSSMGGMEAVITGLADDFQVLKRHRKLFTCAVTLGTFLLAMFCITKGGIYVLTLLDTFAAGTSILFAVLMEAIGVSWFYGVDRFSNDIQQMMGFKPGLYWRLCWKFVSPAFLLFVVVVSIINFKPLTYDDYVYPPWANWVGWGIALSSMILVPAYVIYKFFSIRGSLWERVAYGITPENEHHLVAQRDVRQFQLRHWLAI

Target: Transporter (Rattus norvegicus, UniProt Q63380)
Assay: Displacement of [3H]nisoxetine from NET in Sprague-Dawley rat brain membranes
Format: cell membranes, Membrane

## COC(=O)[C@H]1[C@@H](OC(=O)c2ccccc2)C[C@@H]2CC[C@H]1N2C [COCAINE]
  Ki: 3.3 µM
